Reference: patent publication US20150185205A1

Chains of the proteins cited; added tags and fusions are not shown.
UniProt P25103, whole entry: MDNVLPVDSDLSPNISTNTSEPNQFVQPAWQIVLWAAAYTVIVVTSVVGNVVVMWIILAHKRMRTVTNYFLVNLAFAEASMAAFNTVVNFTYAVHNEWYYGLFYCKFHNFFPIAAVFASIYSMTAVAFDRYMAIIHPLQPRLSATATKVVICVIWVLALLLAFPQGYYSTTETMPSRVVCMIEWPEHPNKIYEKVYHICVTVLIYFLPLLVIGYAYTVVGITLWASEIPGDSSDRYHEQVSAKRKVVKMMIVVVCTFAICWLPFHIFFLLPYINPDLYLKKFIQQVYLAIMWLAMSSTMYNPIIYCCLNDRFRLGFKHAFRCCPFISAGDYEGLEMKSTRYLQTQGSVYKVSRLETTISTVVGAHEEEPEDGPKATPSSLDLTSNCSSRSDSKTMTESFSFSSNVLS

Target: human Tachykinin receptor 1 (human) (UniProt P25103)
Experiment: cell-based or functional assay

- EC50, Fura-2/AM ratiometric fluorescent calcium assay: 14 nM
- Ec50, biosensor fluorescence redistribution (increment of granularity), 6 h treatment: 9.5 pM
Substance: Substance P (from UniProt P20366 58-68) (peptide)
